AlphaSeq binding of Ab-14 heavy chain variants to a spike HR2 peptide

Values reported by Li et al. 2023, doi:10.1038/s41467-023-39022-2 (FLAb copy).

The target is the same throughout: PDVDLGDISGINAS, from the HR2 region of SARS-CoV-2 spike.

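These sequences belong to a second round, designed from the earlier measurements on random variants of the parent. Several design methods are mixed in this list. In AlphaSeq, yeast of one mating type display the scFv and yeast of the other type display the target. Mating (16 h, 30 °C) was followed by selection of diploids and sequencing of their barcodes. Each replicate has its own calibration line, from reference interactions of the BCL2 family. Each pool was mated in six replicate cultures.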

Each scFv is VH, the linker GGGGSGGGGSGGGGS, VL, as in the parent Ab-14, and differs from it in the CDRs of the heavy chain only.
VH: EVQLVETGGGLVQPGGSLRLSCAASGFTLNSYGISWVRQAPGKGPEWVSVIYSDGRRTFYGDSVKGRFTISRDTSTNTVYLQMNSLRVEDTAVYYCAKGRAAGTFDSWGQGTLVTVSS
VL: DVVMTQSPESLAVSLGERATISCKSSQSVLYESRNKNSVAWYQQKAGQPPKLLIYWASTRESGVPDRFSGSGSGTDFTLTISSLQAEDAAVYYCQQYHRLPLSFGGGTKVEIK

Variants are written as CDR1, CDR2 and CDR3 of the heavy chain (limits as in the source). Parent: GFTLNSYGIS, VIYSDGRRTFYGDSVK, GRAAGTFDS.
Variants here have at most six changes.
Each Kd is an estimate from the mating assay, the geometric mean of the replicates in which the pair was seen; lower is stronger.
"nd" marks a missing value. The strain was present, yet no cells mated with the target were sequenced in any replicate, which points to weak or no binding.
In the paper, a design with two or fewer of six values counts as a poor binder.
Empty control strains, which show no peptide, gave a signal in 1% of pairings with all heavy chain designs; the median was 120 nM and 95% of these signals were weaker than 7.0 nM. No background was subtracted.
A sequence measured in both rounds can read differently, since the two assays cover different ranges.
Of ten entries with the parent sequence, four were seen in most replicates (averages 2.2 nM to 240 nM), three in one and three in none, so single entries are noisy.

The variant GFTLNDYGIS | VIYSDGRRTFYGDSVK | GRAAGTFDK gave 11 nM (6 of 6 replicates). The variant GFELNMYGIS | VIYSDGRRTFYGDSVK | GQAAGTFDL gave 23 nM (6 of 6 replicates). The variant GFHLNDYGIS | VIYSDGRRTFYGDSVK | GKAAGTFDS showed 15 nM (6 of 6 replicates). The variant YFTLNSYGIS | VIYADGRRTFYGDSVK | GEAAGTFDS gave 19 nM (5 of 6 replicates). For GFDLNSYGIS | VIYSDGRRTFYGDRVK | GWTAGTFDS, the assay gave 7.9 nM (6 of 6 replicates). With GFDLNSYGIS | VIYSDGKRTFYDDSVK | GRTAGTFDS the result was 470 pM (6 of 6 replicates). The variant GFTLDSYGIS | VIESDGRRTFYGDSVK | GRAAGTALS gave nd (0 of 6 replicates). With GFTLDSYGIS | VIYSDGRRTFYADSVK | GRQAGTFDS the result was 3.4 nM (6 of 6 replicates).

The variant GFTLNSYGIS | VIYADGRRTSYDDEVK | GRAAGTFHS showed nd (0 of 6 replicates). The variant GFGLNDYGIS | VIYSDGRRTFYHDSVK | GRTAGTFDS showed 1.6 nM (6 of 6 replicates). For GFTLNSYGIS | VIYSDGRRTFYDDSVK | GRAAGTFDQ, the assay gave 3.5 nM (2 of 6 replicates). The variant TFRLNSYGIS | VIYSDGRRTFYNDSVK | GREAGTFRS gave 850 nM (1 of 6 replicates). The variant GFELNSYGIS | VIYSDGKRTFYGDDVK | GRQAGTFDS gave 5.7 nM (6 of 6 replicates). For GFDLNSYGIS | VIYADGRRTFYGDSVK | GKAAGTFDT, the assay gave 1.8 nM (6 of 6 replicates). The variant GFGLNSYGIS | VIYSDGRRTFYADSVK | GHVAGTFDS showed 5.2 nM (6 of 6 replicates). For GFTLSSYGIS | VIYRDGHRTFYGDSVK | GRAAGTFDS, the assay gave 95 nM (2 of 6 replicates).

The variant GFTANEYGIS | VMYSDGRRTFYGGSVK | GRAAVTFDQ gave nd (0 of 6 replicates). With GFSLNDYGIS | VIYSDGRRTFYGDSVK | GRLAGTFIS the result was nd (0 of 6 replicates). The variant GFKLNSYGIS | VIYSDGRRTFYGDSVK | GRAAGTDDS gave nd (0 of 6 replicates). The variant GFTLNSYGIS | VIYADGRRTLYGDSVK | GRAAGTNKS showed nd (0 of 6 replicates). The variant GFDLNSYGIS | VIYSDGRRTFYGDSVK | GWTAGTFDS gave 2.5 nM (6 of 6 replicates). For GFNLNSYGIS | VIYSDGRRTFYHDSVK | GQEAGTFDS, the assay gave 230 pM (6 of 6 replicates). The variant FFDLQSYGIS | VIYSDGRRTFYGDSVK | GRAAYWFAS gave 57 nM (3 of 6 replicates). The variant GFDLNSYGIS | VIYSDGRRTFYRDSVK | GREAGTFDS gave 690 pM (6 of 6 replicates).

The variant GFTLNSYGIS | VIYADGRRTFYGDSVK | GRAAGTIDS gave nd (0 of 6 replicates). With GFSLNSYGIS | VIYSDGRRTFYVDDVK | GQAAGTFDS the result was 1.9 nM (6 of 6 replicates). For GFELNSYGIS | VIYSDGRRTFYADSVK | GRNAGTFDT, the assay gave 2.0 nM (6 of 6 replicates). With GFTLNSYGIS | VIYADGRRTFYGDQVK | GRAAGTFNS the result was 26 nM (2 of 6 replicates). The variant KFSLNSYGIS | VIYSDGRRTFYADSVK | GQAAGTFDT showed 1.3 µM (4 of 6 replicates). The variant GFSLDSYGIS | VIYSDGRRTFYTDDVK | GRAAGTFDS showed 1.4 nM (6 of 6 replicates). With GFTLNEYGIS | VIYSDGRRTFYQDSVK | GRAMGTFDS the result was nd (0 of 6 replicates). The variant GFPLNKYGIS | VIYSDGRRTFYGDSVK | GRSAGTFDS showed 44 nM (1 of 6 replicates).

For GFSLNSYGIS | VIYSDGRRTFYADNVK | GRNAGTFDS, the assay gave 1.1 nM (6 of 6 replicates). The variant GFQLNAYGIS | VIYSDGRRTFYGDSVK | GRTAGTFDS showed 17 nM (4 of 6 replicates). The variant GFTLNEYGIS | VIYSDGRRTFYCDSVK | GRFAGTFDS showed 280 nM (5 of 6 replicates). The variant GFTLNEYGIS | VIYSDGRRTFYKDSVK | GGAAGTFDS gave 4.5 nM (6 of 6 replicates). With GFTLNSYGIS | VIYSDGRRTFYDDSVK | GKAAGTFDS the result was 25 nM (6 of 6 replicates). With GFDLNSYGIS | VIYSDGRRTFYGDSVK | GRDAGTFES the result was 3.5 µM (3 of 6 replicates). The variant GFELNSYGIS | VIYSDGRRTFYKDSVK | GKAAGTFDS showed 6.9 nM (6 of 6 replicates). With GFDLNSYGVS | VIYSDGRKTFYYDSVK | GRAAGTFDS the result was nd (0 of 6 replicates).

The variant GATLNSYGIS | VIYADGERTFYGDSVK | GRAAGTFDS showed 10 nM (6 of 6 replicates). The variant GFDLNSYGIS | VIYSDGRRTFYGDSVK | GQAAGTFDR showed 5.9 nM (6 of 6 replicates). With GFDLNEYGIS | VIYSDGRRTFYGDSVK | GKAAGTFDL the result was 1.6 nM (6 of 6 replicates). The variant GFTLNSYGIS | VIYSDGRRTNVSDSVK | GRAGGTEDS gave nd (0 of 6 replicates). The variant GFTLNEYGIS | VIYSDGRRTFYSDSVK | GRVAGTFDS showed 830 pM (6 of 6 replicates). With GFSLNSYGIS | VIYSDGRRTMYGDSVK | GRGAGTFDS the result was nd (0 of 6 replicates). With GFTLNQYGIS | VIYSDGRRVFYGDSVK | GRAAGTFDS the result was 15 nM (6 of 6 replicates). With GFNLNSYGIS | VIYSDGRRTFYGDSVK | GRNAGGFDS the result was nd (0 of 6 replicates).

The closing 5 entries, repeated:

CDR-H1,CDR-H2,CDR-H3,Kd,replicates with signal
GFTLNSYGIS,VIYSDGRRTNVSDSVK,GRAGGTEDS,nd,0 of 6
GFTLNEYGIS,VIYSDGRRTFYSDSVK,GRVAGTFDS,830 pM,6 of 6
GFSLNSYGIS,VIYSDGRRTMYGDSVK,GRGAGTFDS,nd,0 of 6
GFTLNQYGIS,VIYSDGRRVFYGDSVK,GRAAGTFDS,15 nM,6 of 6
GFNLNSYGIS,VIYSDGRRTFYGDSVK,GRNAGGFDS,nd,0 of 6